# Experiments:
# The chains behind the UniProt entries cited, without tags or fusion partners. Residues count along the entry.
# UniProt O15530, 51-359 limits assumed: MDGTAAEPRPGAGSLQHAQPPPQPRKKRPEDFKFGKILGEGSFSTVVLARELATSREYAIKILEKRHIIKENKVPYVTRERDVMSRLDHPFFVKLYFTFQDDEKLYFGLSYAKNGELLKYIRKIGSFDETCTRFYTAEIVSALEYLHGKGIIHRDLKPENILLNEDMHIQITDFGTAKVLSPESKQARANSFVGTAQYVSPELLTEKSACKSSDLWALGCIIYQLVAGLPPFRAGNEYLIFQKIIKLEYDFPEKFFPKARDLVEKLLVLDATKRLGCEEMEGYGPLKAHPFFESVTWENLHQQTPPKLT
# [1] = system: phospho-akt (Thr308) in PC-3 cells; experiment: Inhibition of phospho-akt (Thr308) in PC-3 cells, MSD phospho-akt 308 ELISA kit; conditions: 2 hours, no serum
# PDK1 = PDK1 (Homo sapiens (Human), UniProt O15530); experiment: PDK1 kinase assay (coupled PDK1/AKT/FAM-crosstide assay, IMAP fluorescence polarization); assay type: biochemical
# [2] = inhibition of P308 Akt in PC-3 cells, MSD
# [3] = inhibition of phospo-PDK1 in vitro
Compound,"EC50 [1, 2] [µM]",IC50 (PDK1; [3]) [µM],also measured
Cc1nc(-c2ccc(CNc3ncc(C#N)nc3C(=O)N[C@@H](C)c3ccc(F)c(F)c3)cc2)c2c(N)nccn12,,,EC50 ([1]; inhibition of P308 Akt in PC-3 cells using MSD): 1 to 10 µM; IC50 (PDK1; inhibition of PDK1 in vitro): < 0.1 µM
CN(C)c1ncnc2ccc(-c3ccc(CNc4ncccc4C(=O)NCc4ccc(F)c(F)c4)s3)cc12,1 to 10,< 0.1,
CCNc1ncnc2ccc(-c3ccc(CNc4ncccc4C(=O)NCc4ccc(F)c(F)c4)s3)cc12,< 1,< 0.1,
C[C@H](NC(=O)c1cc(C#N)cnc1NCc1ccc(-c2cnc(N)c(CN(C)C)n2)cc1)c1ccc(F)cc1,,,"EC50 ([1]; inhibition of P308 Akt in PC-3 cells using MSD, tested form: TFA): > 10 µM; IC50 (PDK1; tested form: TFA): 0.1 to 1 µM"
CCN(CC)c1ncnc2ccc(-c3ccc(CNc4ncccc4C(=O)NCc4ccc(F)c(F)c4)s3)cc12,> 10,< 0.1,

# Second part, led by results:
"EC50 [1, 2] [µM]",IC50 (PDK1; [3]) [µM],Compound,also measured
> 10,1 to 5,CCCCCNc1ncnc2ccc(-c3ccc(CNc4ncccc4C(=O)NCc4ccc(F)c(F)c4)s3)cc12,
> 10,< 0.1,Nc1ncnc2ccc(-c3ccc(CNc4ncc(C(=O)O)cc4C(=O)NCc4ccc(F)c(F)c4)s3)cc12,
> 10,< 0.1,O=C(NCc1ccc(F)c(F)c1)c1cccnc1NCc1ccc(-c2ccc3ncncc3c2)s1,
1 to 10,< 0.1,CONc1ncnc2ccc(-c3ccc(CNc4ncccc4C(=O)NCc4ccc(F)c(F)c4)s3)cc12,
1 to 10,< 0.1,CCCNc1ncnc2ccc(-c3ccc(CNc4ncccc4C(=O)NCc4ccc(F)c(F)c4)s3)cc12,
> 10,0.1 to 1,O=C(NCc1ccc(F)c(F)c1)c1cccnc1NCc1ccc(-c2ccc3ncnc(N4CCCC4)c3c2)s1,

# Source: US10030016B2 (Sunesis Pharmaceuticals, Inc., priority 2009, dated 2018)
